The test system of this test is glucoamylase. The settings on record: enzyme concentration about 66.7 μM, maltose 27 mM; fit to measured curve (FIG. 3).

As to `OC[C@H]1O[C@H](O[C@H]2[C@H](O)[C@@H](O)C(O)O[C@@H]2CO)[C@H](O)[C@@H](O)[C@@H]1O` (mixture of isomers) [maltose], the Km was 2610 µM and the kcat turned out to be 1.22 s⁻¹.

By Km is commonly meant the substrate concentration at which the rate is half of its maximum. Usually kcat stands for the number of substrate molecules converted per active site and unit of time at saturation.
